Several values for one entry are separate records, joined by “and”; a condition that tells them apart may be missing. Equal values may be shown once. Read-outs that look alike come from different tables or passages of the source. Strand notation (5' to 3'): a small letter for the sugar, then the base; units joined by * are phosphorothioate-linked, units joined directly phosphodiester-linked; [ ] holds rarer units or linkages, { } end groups; capitals alone tell only the bases. d = 2'-deoxy (DNA); m = 2'-O-methyl
Assays:
[1] = tested on: human colon cancer DLD-1 xenografts; test: Tumor growth in nude mice bearing DLD-1 xenografts; type: in vivo
[2] = tested on: MDM2, p53 and p21 protein levels in DLD-1 cells; test: Western blot of MDM2, p53 and p21 in DLD-1 cells; type: cell-based, human; conditions: 24 hr (FIG. 24, lane A)
Source text: (§1) Chemicals and Reagents. Cell culture media and phosphate-buffered saline (PBS) were obtained from Sigma Chemical Co. (St. Louis, Mo.). Fetal bovine serum (FBS), antibodies against p53 and p21, Lipofectin, trypsin, penicillin-streptomycin, and trypan blue stain were purchased from GIBCO-BRL (Grand Island, N.Y.). The anti-human-MDM2 monoclonal antibody (Chen L. et al., Proc Natl Acad Sci USA, 95: 195-200, 1998; Chen L. et al., Mol. Med. 5: 21-34, 1999) was kindly provided by J. Chen (Moffitt Cancer Center, Tampa, Fla.). Chemotherapeutic agents adriamycin and 5-fluorouracil (5-FU) were obtained from Sigma. Natural product topoisomerase I inhibitor 10-hydroxycamptothecin (HCPT) was obtained from the Midwest Co. (Beijing, China) with the purity of the drug being greater than 98% (Zhang R. et al., Cancer Chemother Pharm 41: 257-267, 1998). Cell Culture. The tumor cell lines, LS174T and DLD-1 were obtained from the American Type Culture Collection (Rockville, Md.) and cultured according to their instructions. […] The MDM2, p53 and p21 levels in cultured cells were analyzed by using the methods described previously (earlier (Chen L. et al., Proc Natl Acad Sci USA, 95: 195-200, 1998; Chen L. et al., Mol. Med. 5: 21-34, 1999; Wang H. et al., Int J. Oncol. 15: 653-660, 1999). In brief, cell lysate containing identical amounts of total protein were fractionated by SDS-PAGE and transferred to Bio-Rad Trans-Blot nitrocellulose membranes (Bio-Rad Laboratories, Hercules, Calif., USA). The nitrocellulose membrane was then incubated with blocking buffer (PBS containing 0.1% Tween 20 and 5% non-fat milk) for 1 hr at room temperature and washed with the washing buffer (PBS containing 0. […] After washing as described above the protein of interest was detected by ECL reagents from Amersham (Arlington Height, Ill.). […]
Following in vitro combination treatment of Oligos and chemotherapeutic agents HCPT, adriamycin, and 5-FU, the protein levels of MDM2, p53 and p21 were determined in DLD-1 cells. […]

[3] = tested on: human colon cancer LS174T xenografts; test: Tumor growth in nude mice bearing LS174T xenografts
[4] = not given; remark: listed apart in the source
[5] = tested on: MDM2, p53 and p21 protein levels in LS174T cells; test: Western blot of MDM2, p53 and p21 in LS174T cells; type: cell-based, human; conditions: 24 hr (FIG. 20, lane A)
Source text: as §1
Following in vitro combination treatment of Oligos and chemotherapeutic agents HCPT, adriamycin, and 5-FU, the protein levels of MDM2, p53 and p21 were determined in LS174T cells. […]

SJSA xenografts = test: Tumor growth in nude mice bearing SJSA xenografts; type: in vivo; conditions: for effect on tumor growth: SJSA xenografts (average 150 mg), ip, 5 doses/week
Experimental: 51:173-182, 1996). […] The control group received physiological saline only.
Tumor growth was monitored using the methods previously reported (74,75). Tumor weight (g) was calculated by the formula, ½·a·b^2, where “a” is the long diameter (cm) and “b” is the short diameter (cm) of the tumor. At the end of the experiment, tumors were removed, weighed, and then fixed for pathology evaluation.

JAR xenografts = test: Tumor regression and survival of nude mice bearing large JAR xenografts, intratumoral injection; conditions: direct injection, HCPT 3 mg/kg/day
[6] = day 3, oligo 20, HCPT 3, 5-FU 10 mg/kg/day
[7] = day 6, oligo 20, HCPT 3, 5-FU 10 mg/kg/day
[8] = day 9, oligo 20, HCPT 3, 5-FU 10 mg/kg/day
[9] = day 12, oligo 20, HCPT 3, 5-FU 10 mg/kg/day
[10] = day 15, oligo 20, HCPT 3, 5-FU 10 mg/kg/day
[11] = day 18, oligo 20, HCPT 3, 5-FU 10 mg/kg/day
[12] = day 21 (end of experiment), oligo 20, HCPT 3, 5-FU 10 mg/kg/day
[13] = female, nude, mouse, in vivo, 3 day
[14] = female, nude, mouse, in vivo, 6 day
[15] = female, nude, mouse, in vivo, 9 day
[16] = female, nude, mouse, in vivo, 12 day
[17] = female, nude, mouse, in vivo, 15 day
[18] = female, nude, mouse, in vivo, 18 day

| Molecule | xenograft pathology (tumor histology) [1] | Growth ratio % T:C [1, 6] | Growth ratio % T:C [1, 7] | Growth ratio % T:C [1, 8] | Growth ratio % T:C [1, 9] | Growth ratio % T:C [1, 10] | Growth ratio % T:C [1, 11] | Growth ratio % T:C [1, 12] | MDM2, p53 and p21 protein levels, chemotherapeutic agent alone [2] | xenograft pathology (tumor histology) [3] | Growth ratio % T:C (mean tumor mass of treated group vs saline control) [3, 6] | Growth ratio % T:C (mean tumor mass of treated group vs saline control) [3, 7] | Growth ratio % T:C (mean tumor mass of treated group vs saline control) [3, 8] | Growth ratio % T:C (mean tumor mass of treated group vs saline control) [3, 9] | MDM2, p53 and p21 protein levels, chemotherapeutic agent alone [5] | effect on tumor growth (SJSA xenografts) | other results |
| --- | --- | --- | --- | --- | --- | --- | --- | --- | --- | --- | --- | --- | --- | --- | --- | --- | --- |
| O=c1[nH]cc(F)c(=O)[nH]1 [Oligo 5-FU, 5-fluorouracil] | histologically similar to the control tumors | 79.4% | 75.8% | 61.2% | 46.2% | 54.3% | 55.6% | 44.0% | significantly induced MDM2 in a dose-dependent manner | No significant histological changes | 50.1% | 40.2% | 32.5% | 39.7% | induced p53, p21, and MDM2 in a dose-dependent manner |  | Survival Rates of Animals [13]: 100%; Survival Rates of Animals [14]: 100%; Survival Rates of Animals [15]: 100%; Survival Rates of Animals [16]: 100%; Survival Rates of Animals [17]: 100%; Survival Rates of Animals [18]: 100%; Survival Rates of Animals (female, nude, mouse, in vivo, 21 day): 100%; Growth ratio % T:C (mean tumor mass of treated group vs saline control) ([3]; day 18 (end of experiment), oligo 20, HCPT 3, 5-FU 10 mg/kg/day): 45.3%; Survival Rates of Animals [4, 13]: 100%; Survival Rates of Animals [4, 14]: 100%; Survival Rates of Animals [4, 15]: 100%; Survival Rates of Animals [4, 16]: 100%; Survival Rates of Animals [4, 17]: 100%; Survival Rates of Animals [4, 18]: 100% |
| AS5-2HM: mismatch control hybrid oligonucleotide, 5′-UGAGACCAGTTGTCAGUCAC-3′, SEQ ID NO:48 (DNA mU*mG*dA*dG*dA*dC*dC*dA*dG*dT*dT*dG*dT*dC*dA*dG*mU*mC*mA*mC) |  |  |  |  |  |  |  |  |  |  |  |  |  |  |  | no effect | synergistic effect with HCPT on tumor growth (SJSA xenografts; SJSA xenografts, co-administration with HCPT): no synergistic effect |
| COc1cccc2c1C(=O)c1c(O)c3c(c(O)c1C2=O)C[C@@](O)(C(=O)CO)C[C@@H]3O[C@H]1C[C@H](N)[C@H](O)[C@H](C)O1 [adriamycin] |  |  |  |  |  |  |  |  | induced p21 and MDM2 |  |  |  |  |  | slightly induced p53, p21 and MDM2 |  |  |
| CC[C@@]1(O)C(=O)OCc2c1cc1n(c2=O)Cc2cc3cc(O)ccc3nc2-1 [HCPT, 10-hydroxycamptothecin] | histologically similar to the control tumors | 87.7% | 74.0% | 62.3% | 51.4% | 60.8% | 56.3% | 51.0% and 44% | induced MDM2 and p21 in a dose-dependent manner | large necropurulent, ulcerative changes | 74.4% | 41.2% | 30.0% | 43.7% | induced p53, p21, and MDM2 in a dose-dependent manner | dose-dependent effect | tumor growth inhibition ([1]; after 21-day treatment, HCPT 3 mg/kg/day first week, then every other day): approximately 51%; Survival Rates of Animals (day 3, mice bearing DLD-1 xenografts): 100%; Survival Rates of Animals (day 6, mice bearing DLD-1 xenografts): 100%; Survival Rates of Animals (day 9, mice bearing DLD-1 xenografts): 100%; Survival Rates of Animals (day 12, mice bearing DLD-1 xenografts): 100%; Survival Rates of Animals (day 15, mice bearing DLD-1 xenografts): 100%; Survival Rates of Animals (day 18, mice bearing DLD-1 xenografts): 100%; Survival Rates of Animals (day 21, mice bearing DLD-1 xenografts): 100%; tumor growth inhibition ([3]; HCPT 3 mg/kg/day first week, then every other day): approximately 50%; Growth ratio % T:C (mean tumor mass of treated group vs saline control) [3, 10]: 49.1%; Survival Rates of Animals ([4]; day 3, mice bearing LS174T xenografts): 100%; Survival Rates of Animals ([4]; day 6, mice bearing LS174T xenografts): 100%; Survival Rates of Animals ([4]; day 9, mice bearing LS174T xenografts): 66.7%; Survival Rates of Animals ([4]; day 12, mice bearing LS174T xenografts): 50.0%; Survival Rates of Animals ([4]; day 15, mice bearing LS174T xenografts): 50.0%; Survival Rates of Animals ([4]; day 18, mice bearing LS174T xenografts): 50.0%; effect on tumor regression and animal survival (JAR xenografts): no effect |

Source: patent US6946447B2, “MDM2-specific antisense oligonucleotides” (Hybridon, Inc., priority 1997, dated 2005)
